These results are taken from US7064204B2, “Pharmaceutically active compounds having a tricyclic pyrazolotriazolopyrimidine ring structure and methods of use” (King Pharmacueticals Reserch and Development, Inc., priority 2002, dated 2006).

Chains of the proteins cited; added tags and fusions are not shown.
UniProt P30542, whole entry: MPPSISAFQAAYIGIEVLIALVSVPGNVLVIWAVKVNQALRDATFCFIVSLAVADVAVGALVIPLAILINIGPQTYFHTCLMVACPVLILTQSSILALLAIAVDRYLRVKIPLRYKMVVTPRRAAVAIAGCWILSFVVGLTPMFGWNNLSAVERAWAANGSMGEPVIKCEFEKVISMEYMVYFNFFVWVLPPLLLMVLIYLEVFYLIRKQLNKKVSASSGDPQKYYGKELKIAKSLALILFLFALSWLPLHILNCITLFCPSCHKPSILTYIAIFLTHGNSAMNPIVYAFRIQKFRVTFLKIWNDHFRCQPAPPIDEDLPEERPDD

The target in assay [1] is T1, human A2A adenosine receptors (Homo sapiens, UniProt P29274).
T1 construct: expressed in transfected cells; host or cells: CHO cells
Put plainly: Displacement of [3H]SCH58261 binding at human A2A adenosine receptors expressed in CHO cells.

For assay [2], the target named is T2, human A1 adenosine receptors (Homo sapiens, UniProt P30542).
T2 construct: expressed in transfected cells; host or cells: CHO cells
Put plainly: Displacement of [3H]DPCPX binding at human A1 adenosine receptors expressed in CHO cells. The settings on record: Table 2, footnote b: [3H]DPCPX.

One may read the Ki as a dissociation constant, usually derived from enzyme kinetics or from competition with a known ligand.

The structures appear in SMILES notation. Counter-ions that a name gives are not always drawn. Bounds are passed on as bounds.

In assay [1] (Table 3: [3H]SCH58261, human A2A), `CCNc1c2c(nc(N)n3nc(-c4ccco4)nc23)nn1C` [Compound 53, N9-Ethyl-2-furan-2-yl-8-methyl-8H-pyrazolo[4,3-e][1,2,4]triazolo[1,5-c]pyrimidine-5,9-diamine hydrochloride salt] had a Ki of 10 nM.
In the case of `Nc1nc2c(cnn2CCc2ccccc2)c2nc(-c3ccc(Cl)cc3)nn12` [Compound 5b, 2-(4-Chloro-phenyl)-7-phenethyl-7H-pyrazolo[4,3-e][1,2,4]triazolo[1,5-c]pyrimidin-5-ylamine], the Ki is more than 1000 nM in assay [2] and more than 1000 nM in assay [1] (Table 2, footnote b: [3H]SCH58261, human A2A).
